From publication PMC4819712 (Drug Development Research, 2016)

Protein sequences, listed by entry. Tags and fused reporters are not part of them. Residues count along the entry.
UniProt P23219, 24-599: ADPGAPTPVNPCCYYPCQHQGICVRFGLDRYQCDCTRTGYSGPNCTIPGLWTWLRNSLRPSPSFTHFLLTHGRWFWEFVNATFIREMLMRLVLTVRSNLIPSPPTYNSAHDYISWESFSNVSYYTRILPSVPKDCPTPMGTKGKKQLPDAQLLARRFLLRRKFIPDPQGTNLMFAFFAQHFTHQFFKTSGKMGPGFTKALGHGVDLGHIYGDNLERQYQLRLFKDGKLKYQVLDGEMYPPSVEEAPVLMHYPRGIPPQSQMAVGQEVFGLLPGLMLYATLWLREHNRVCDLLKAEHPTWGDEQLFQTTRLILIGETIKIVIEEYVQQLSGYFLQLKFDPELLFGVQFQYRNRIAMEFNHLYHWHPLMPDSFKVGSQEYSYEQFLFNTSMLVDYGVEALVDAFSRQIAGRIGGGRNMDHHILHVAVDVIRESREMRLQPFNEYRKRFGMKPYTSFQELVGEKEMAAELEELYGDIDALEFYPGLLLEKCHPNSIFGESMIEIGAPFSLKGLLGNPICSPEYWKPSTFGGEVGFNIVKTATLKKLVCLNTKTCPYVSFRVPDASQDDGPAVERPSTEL

Target: Human recombinant COX‐1 (Homo sapiens, UniProt P23219)
Assay type: biochemical

SMILES: C[C@H](C(=O)O)c1ccc(-c2ccccc2)c(F)c1 [S(+)‐flurbiprofen, (2S)‐2‐(2Fluorobiphenyl‐4‐yl) propionic acid]
- IC50: 8.97 nM
